Chains of the proteins cited; added tags and fusions are not shown.
UniProt P32300, whole entry, looked up: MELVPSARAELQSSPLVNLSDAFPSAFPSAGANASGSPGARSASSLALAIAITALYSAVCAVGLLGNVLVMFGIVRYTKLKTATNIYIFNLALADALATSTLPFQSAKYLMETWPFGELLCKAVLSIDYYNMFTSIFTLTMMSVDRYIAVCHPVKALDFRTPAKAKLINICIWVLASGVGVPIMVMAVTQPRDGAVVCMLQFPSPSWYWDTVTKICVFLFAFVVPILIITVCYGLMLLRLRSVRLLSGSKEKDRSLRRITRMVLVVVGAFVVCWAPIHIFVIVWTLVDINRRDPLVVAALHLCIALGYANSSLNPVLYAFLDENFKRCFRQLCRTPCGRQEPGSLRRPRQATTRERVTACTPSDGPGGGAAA

According to ChEMBL document CHEMBL3352005, “Synthesis of a novel universal opioid receptor agonist with the 1,3,5-trioxazatriquinane skeleton and its pharmacologies” (Bioorg Med Chem Lett, 2014):

Target: Delta-type opioid receptor (Mus musculus, UniProt P32300)
Assay: Displacement of [3H]DPDPE from mouse whole brain DOR

Q: `CN(C(=O)Cc1ccccc1)[C@H]1CC[C@@]2(CCCO2)C[C@@H]1N1CCCC1` was tested. Which Ki did it give?
A: Its Ki is > 1 µM.
